This data set deals with human liver microsomes. The experiment in a line: Steady-state bioactivation kinetics: alpha-dicarbonyl. To be noted: alpha-dicarbonyl formation.

Molecules are shown by their SMILES.

The values below come from article PMC8716319 (Toxicology, 2020).

`Cc1cnc(NC(=O)C2=C(O)c3ccccc3S(=O)(=O)N2C)s1` [meloxicam]: the “higher Km compared to sudoxicam” value is “four-fold”.
